For orientation: IC50 means the concentration that gives 50% inhibition.

This note sets out measurements from US6277825A (priority 1999, dated 2001).

One data set addresses NMDA receptor. The data set is classed as binding.
Details: not given
In the case of `CC[C@H](C)[C@H](NC(=O)[C@H](CC(C)C)NC(=O)[C@H](C)NC(=O)[C@H](CCC(N)=O)NC(=O)[C@H](CC(N)=O)NC(=O)[C@H](C)NC(=O)[C@H](CCC(N)=O)NC(=O)[C@H](CC(C)C)NC(=O)[C@H](CC(C(=O)O)C(=O)O)NC(=O)[C@H](CC(C(=O)O)C(=O)O)NC(=O)[C@H](CCC(=O)O)NC(=O)CN)C(=O)N[C@@H](CCCNC(=N)N)C(=O)N[C@@H](C)C(=O)N[C@@H](CCCCN)C(=O)N[C@@H](CO)C(=O)N[C@@H](CC(N)=O)C(N)=O` [A^7,10,14], the half-maximal inhibitory concentration (IC50) is 88 nM.

In the case of `CC[C@H](C)[C@H](NC(=O)[C@H](CC(C)C)NC(=O)[C@H](C)NC(=O)[C@H](CCC(N)=O)NC(=O)[C@H](CC(N)=O)NC(=O)[C@H](C)NC(=O)[C@H](CCC(N)=O)NC(=O)[C@H](CC(C)C)NC(=O)[C@H](CC(C(=O)O)C(=O)O)NC(=O)[C@H](CC(C(=O)O)C(=O)O)NC(=O)[C@H](CCC(=O)O)NC(=O)CN)C(=O)N[C@@H](CCCNC(=N)N)C(=O)N[C@@H](C)C(=O)N[C@@H](CCCCN)C(N)=O` [(A^7,10,14)1-15], the IC50 stood at 34 nM.

Turning to `CC[C@H](C)[C@H](NC(=O)[C@H](CC(C)C)NC(=O)[C@H](CCC(=O)O)NC(=O)[C@H](CCC(N)=O)NC(=O)[C@H](CC(N)=O)NC(=O)[C@H](CCC(=O)O)NC(=O)[C@H](CCC(N)=O)NC(=O)[C@H](CC(C)C)NC(=O)[C@H](CC(C(=O)O)C(=O)O)NC(=O)[C@H](CC(C(=O)O)C(=O)O)NC(=O)[C@H](CCC(=O)O)NC(=O)CN)C(=O)N[C@@H](CCCNC(=N)N)C(=O)N[C@@H](CCC(=O)O)C(=O)N[C@@H](CCCCN)C(=O)N[C@@H](CO)C(=O)N[C@@H](CC(N)=O)C(N)=O` [E^7,10,4], the 50% inhibitory concentration (IC50) was not below 20000 nM.

For the molecule `CC[C@H](C)[C@H](NC(=O)[C@H](CC(C)C)NC(=O)[C@H](CC(C(=O)O)C(=O)O)NC(=O)[C@H](CCC(N)=O)NC(=O)[C@H](CC(N)=O)NC(=O)[C@H](CC(C(=O)O)C(=O)O)NC(=O)[C@H](CCC(N)=O)NC(=O)[C@H](CC(C)C)NC(=O)[C@H](CC(C(=O)O)C(=O)O)NC(=O)[C@H](C)NC(=O)[C@H](CCC(=O)O)NC(=O)CN)C(=O)N[C@@H](CCCNC(=N)N)C(=O)N[C@@H](CC(C(=O)O)C(=O)O)C(=O)N[C@@H](CCCCN)C(=O)N[C@@H](CO)C(=O)N[C@@H](CC(N)=O)C(N)=O` [A^3], the IC50 is 9100 nM.

The molecule `CC[C@H](C)[C@H](NC(=O)[C@H](CC(C)C)NC(=O)[C@H](C)NC(=O)[C@H](CCC(N)=O)NC(=O)[C@H](CC(N)=O)NC(=O)[C@H](C)NC(=O)[C@H](CCC(N)=O)NC(=O)[C@H](CC(C)C)NC(=O)[C@H](CC(C(=O)O)C(=O)O)NC(=O)[C@H](CC(C(=O)O)C(=O)O)NC(=O)[C@H](CCC(=O)O)NC(=O)CN)C(=O)N[C@@H](CCCNC(=N)N)C(=O)N[C@@H](C)C(N)=O` [(A^7,10,14)1-14] gave an IC50 of 232 nM.

`CC[C@H](C)[C@H](NC(=O)[C@H](CC(C)C)NC(=O)[C@H](CC(C(=O)O)C(=O)O)NC(=O)[C@H](CCC(N)=O)NC(=O)[C@H](CC(N)=O)NC(=O)[C@H](CC(C(=O)O)C(=O)O)NC(=O)[C@H](CCC(N)=O)NC(=O)[C@H](CC(C)C)NC(=O)[C@H](CC(C(=O)O)C(=O)O)NC(=O)[C@H](CO)NC(=O)[C@H](CCC(=O)O)NC(=O)CN)C(=O)N[C@@H](CCCNC(=N)N)C(=O)N[C@@H](CC(C(=O)O)C(=O)O)C(=O)N[C@@H](CCCCN)C(=O)N[C@@H](CO)C(=O)N[C@@H](CC(N)=O)C(N)=O` [S^3] registered an IC50 of 3600 nM.

With `CC[C@H](C)[C@H](NC(=O)[C@H](CC(C)C)NC(=O)[C@H](C)NC(=O)[C@H](CCC(N)=O)NC(=O)[C@H](CC(N)=O)NC(=O)[C@H](C)NC(=O)[C@H](CCC(N)=O)NC(=O)[C@H](CC(C)C)NC(=O)[C@H](CC(C(=O)O)C(=O)O)NC(=O)[C@H](CC(C(=O)O)C(=O)O)NC(=O)[C@H](CCC(=O)O)NC(=O)CN)C(=O)N[C@@H](CCCNC(=N)N)C(=O)N[C@@H](C)C(=O)N[C@@H](CCCCN)C(=O)N[C@@H](CO)C(N)=O` [(A^7,10,14)1-16], 37 nM corresponded to half-maximal inhibition (IC50).

System in the next data set: not given
Conditions: 37° C.; 50 μg/ml.
`CC[C@H](C)[C@H](NC(=O)[C@H](CC(C)C)NC(=O)[C@H](CC(C(=O)O)C(=O)O)NC(=O)[C@H](CCC(N)=O)NC(=O)[C@H](CC(N)=O)NC(=O)[C@H](CC(C(=O)O)C(=O)O)NC(=O)[C@H](CCC(N)=O)NC(=O)[C@H](CC(C)C)NC(=O)[C@H](CC(C(=O)O)C(=O)O)NC(=O)[C@H](C)NC(=O)[C@H](CCC(=O)O)NC(=O)CN)C(=O)N[C@@H](CCCNC(=N)N)C(=O)N[C@@H](CC(C(=O)O)C(=O)O)C(=O)N[C@@H](CCCCN)C(=O)N[C@@H](CO)C(=O)N[C@@H](CC(N)=O)C(N)=O` [A^3]: the “stability in biological media” value is “stable in all biological media for up to 4 hours”.
